# Test results from paper PMC7449170, “ATI-2173, a Novel Liver-Targeted Non-Chain-Terminating Nucleotide for Hepatitis B Virus Cure Regimens” (Antimicrobial Agents and Chemotherapy, 2020).
# How the values were obtained:
# [1] = system: HBV genotype D; details: primary human hepatocytes, control compound
# [2] = system: primary human hepatocytes
substance,measurement,setting,value
peg-IFN-α2a: Pegylated interferon-α2a (positive control) obtained from Roche,"EC50, HBV DNA",[1],2 IU/ml
same,CC50 (50% cytotoxic concentration),[2],> 100 IU/ml
